According to PubChem BioAssay (Tox21):
Where “and” joins values, the source holds several entries; their conditions need not be identical. Equal entries are not always repeated. The entries are a selection whose mix differs from that of the whole data set. Records with an inconclusive call do not appear. Calls of active or inactive are those of the source. Unless noted, the call rests on the fitted dose curve; in most records, active means well fitted curve in the direction sought with a large enough effect in the repeat runs; inconclusive means weak or mixed curves; inactive means no such curve, though single readings can be large; an effect the other way counts as inactive or inconclusive.

Sequences of proteins named here, by UniProt entry; tags and fusion partners are left off.
UniProt P19793, whole entry: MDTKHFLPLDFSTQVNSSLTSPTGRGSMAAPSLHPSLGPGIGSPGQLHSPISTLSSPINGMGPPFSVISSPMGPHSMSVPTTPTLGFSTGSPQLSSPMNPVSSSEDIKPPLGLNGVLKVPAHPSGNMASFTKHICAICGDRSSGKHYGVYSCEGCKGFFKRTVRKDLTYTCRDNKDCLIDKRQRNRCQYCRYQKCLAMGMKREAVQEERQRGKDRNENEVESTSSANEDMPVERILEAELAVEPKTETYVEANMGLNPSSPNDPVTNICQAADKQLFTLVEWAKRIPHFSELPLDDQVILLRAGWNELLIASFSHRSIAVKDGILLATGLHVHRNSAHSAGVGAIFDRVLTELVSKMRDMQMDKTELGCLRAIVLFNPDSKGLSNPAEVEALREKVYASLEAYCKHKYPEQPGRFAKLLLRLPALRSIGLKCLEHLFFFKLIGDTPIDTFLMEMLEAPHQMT
UniProt P08659, whole entry: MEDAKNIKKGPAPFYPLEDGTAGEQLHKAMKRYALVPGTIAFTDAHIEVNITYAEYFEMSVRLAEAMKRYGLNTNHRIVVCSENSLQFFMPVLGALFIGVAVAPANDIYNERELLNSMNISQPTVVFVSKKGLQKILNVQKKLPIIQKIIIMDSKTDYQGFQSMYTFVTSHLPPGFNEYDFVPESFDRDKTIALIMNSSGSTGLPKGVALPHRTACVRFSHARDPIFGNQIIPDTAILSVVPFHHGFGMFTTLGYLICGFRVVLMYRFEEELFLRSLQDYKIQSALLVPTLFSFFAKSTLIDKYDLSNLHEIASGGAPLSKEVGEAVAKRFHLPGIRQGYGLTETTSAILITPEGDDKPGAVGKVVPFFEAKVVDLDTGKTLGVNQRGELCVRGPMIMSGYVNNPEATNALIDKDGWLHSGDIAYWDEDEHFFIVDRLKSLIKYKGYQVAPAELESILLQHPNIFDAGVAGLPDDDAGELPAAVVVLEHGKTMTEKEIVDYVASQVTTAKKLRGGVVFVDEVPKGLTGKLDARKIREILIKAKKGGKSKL
UniProt Q14994, whole entry: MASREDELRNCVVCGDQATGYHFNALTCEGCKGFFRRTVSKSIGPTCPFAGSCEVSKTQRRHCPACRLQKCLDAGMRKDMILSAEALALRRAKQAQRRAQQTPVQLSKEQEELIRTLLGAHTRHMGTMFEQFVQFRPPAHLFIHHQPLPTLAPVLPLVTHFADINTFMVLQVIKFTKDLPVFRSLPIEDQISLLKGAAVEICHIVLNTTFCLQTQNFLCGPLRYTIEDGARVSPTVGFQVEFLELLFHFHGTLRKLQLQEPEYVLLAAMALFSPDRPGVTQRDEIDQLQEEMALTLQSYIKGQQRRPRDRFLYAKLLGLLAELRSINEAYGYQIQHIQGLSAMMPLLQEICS

Tests used:
[1] = target: Nuclear receptor ROR-gamma (Homo sapiens) (UniProt P51449); experiment: qHTS assay to identify small molecule antagonists of the retinoid-related orphan receptor gamma (ROR-gamma) signaling pathway (AID 1159521;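 further: CHO cells with doxycycline inducible ROR-gamma driving an RORE luciferase reporter; top concentration of the series differs between compounds; on the % scale 0 is the no-effect control and ±100 the full control effect; nearly all actives have a fitted effect of over 50% in size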); conditions: Tet-on RORgamma CHO cells, RORE-luciferase, 16 h; at 92.4 µM (top of the series)
[2] = qHTS assay to identify small molecule agonists of the AP-1 signaling pathway - cell viability counter screen (AID 1159525; calls by dose curve; further: nearly all actives have a fitted effect of over 55% in size); conditions: ME-180 AP-1-bla cells viability, ATP luminescence, 5 h; at 76.8 µM (top of the series) unless noted
Outline: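 ME-180 AP-1-bla, 2500 cells/well, Opti-MEM + 0.5% dialyzed FBS; overnight 37 °C; cpd 15-pt titration, 5 h 37 °C; CellTiter-Glo 30 min RT; luminescence read; normalised to TOAB and DMSO controls.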

[3] = qHTS assay to identify small molecule agonists of the AP-1 signaling pathway (AID 1159526; calls by dose curve; further: on the % scale 0 is the no-effect control and ±100 the full control effect); conditions: ME-180 (cervical carcinoma) AP-1-bla reporter, beta-lactamase FRET ratio, 5 h; at 76.8 µM (top of the series)
[4] = target: Retinoic acid receptor RXR-alpha (Homo sapiens) (UniProt P19793); experiment: qHTS assay to identify small molecule agonists of the RXR signaling pathway (AID 1159527; calls by dose curve; further: on the % scale 0 is the no-effect control and ±100 the full control effect; nearly all actives have a fitted effect of over 35% in size); conditions: HEK293T RXRa-UAS-bla, beta-lactamase ratio, 16 h; series mostly up to 76.8 µM
Outline: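 Agonist mode; 9-cis retinoic acid positive control. HEK 293T UAS-bla reporter cells, 2% charcoal-stripped FBS, 16 hr compound exposure at 37 C/5% CO2. LiveBLAzer B/G FRET substrate 2 hr RT; ex 405, em 460/530 nm.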

[5] = qHTS assay to identify small molecule antagonists of the retinoic acid receptor (RAR) signaling pathway (AID 1159552; further: on the % scale 0 is the no-effect control and ±100 the full control effect; nearly all actives have a fitted effect of over 50% in size); conditions: C3RL4 RARE luciferase reporter, retinol-stimulated, 6 h; at 92.4 µM (top of the series)
Outline: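 Luminescence from a RARE luciferase reporter in C3RL4 cells served as read-out. Cells received compounds together with 1 uM final retinol and incubated 6 hr at 37 C before detection reagent was added for 30 min at room temperature.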

[6] = qHTS assay to identify small molecule antagonists of the estrogen related receptor (ERR) signaling pathway from Tox21 library - cell viability counter screen (AID 1224834); conditions: ERR reporter cells viability, CellTiter-Fluor, 17.5 h; at 92.4 µM (top of the series); further: on the % scale 0 is the no-effect control and ±100 the full control effect; nearly all actives have a fitted effect of over 30% in size
Outline: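 CellTiter-Fluor fluorescence measured; ERR cells; 17.5 h compound incubation at 37 C; 30 min reagent step.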

[7] = target: Luciferin 4-monooxygenase (Photinus pyralis) (UniProt P08659); experiment: qHTS assay to identify small molecule inhibitors of firefly luciferase (AID 1224835); further: on the % scale 0 is the no-effect control and ±100 the full control effect; nearly all actives have a fitted effect of over 25% in size; conditions: purified P. pyralis luciferase, luminescence inhibition; series mostly up to 115 µM
Outline: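 Quantitative HTS format; KM concentrations of both substrates. Purified P. pyralis FLuc activity quantified from luminescence images.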

[8] = target: Nuclear receptor subfamily 1 group I member 3 (Homo sapiens) (UniProt Q14994); experiment: qHTS assay to identify small molecule antagonists of the constitutive androstane receptor (CAR) signaling pathway (AID 1224838); conditions: HepG2-CYP2B6-hCAR luciferase, CITCO-stimulated, 24 h; at 92.4 µM (top of the series);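 further: HepG2 cells stably expressing hCAR with CYP2B6 luciferase reporter stimulated by CITCO; on the % scale 0 is the no-effect control and ±100 the full control effect; nearly all actives have a fitted effect of over 40% in size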
[9] = target: Nuclear receptor subfamily 1 group I member 3 (Homo sapiens) (UniProt Q14994); experiment: qHTS assay to identify small molecule agonists of the constitutive androstane receptor (CAR) signaling pathway (AID 1224839); conditions: HepG2 hCAR CYP2B6-luciferase, agonist mode, 24 h; series mostly up to 92.4 µM;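 further: HepG2 cells stably carrying human CAR and a CYP2B6 luciferase reporter; on the % scale 0 is the no-effect control and ±100 the full control effect; nearly all actives have a fitted effect of over 15% in size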
[10] = qHTS assay to identify small molecule antagonists of the vitamin D receptor (VDR) signaling pathway - cell viability counter screen (AID 743225); conditions: VDR-bla HEK293T viability, CellTiter-Glo luminescence, 16 h; further: on the % scale 0 is the no-effect control and ±100 the full control effect; nearly all actives have a fitted effect of over 50% in size
Outline: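 Viability counter screen run in the same wells as the beta-lactamase reporter assay: HEK 293T VDR-UAS-bla cells, 16 h compound exposure at 37C with 3 nM (final) 1-alpha,25-dihydroxyvitamin D3. CellTiter-Glo luminescence, 30 min, room temperature.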

[11] = qHTS assay to identify small molecule agonists of the NFkB signaling pathway - cell viability counter screen (AID 1159515; calls by dose curve; further: on the % scale 0 is the no-effect control and ±100 the full control effect; nearly all actives have a fitted effect of over 55% in size); conditions: NFkB-bla ME-180 viability, CellTiter-Glo luminescence, 5 h
Outline: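 5 hr compound treatment of NFkB-bla ME-180 cells (2,000/well, seeded overnight beforehand), followed by reporter substrate for 1.5 hr. CellTiter-Glo added afterward; luminescence after 30 min RT.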

[12] = qHTS assay to identify small molecule agonists of the endoplasmic reticulum stress response signaling pathway (AID 1159516; active means well fitted activation curve with a large enough effect in the signal ratio in the repeat runs, not every such curve was filed as active; the % refers to the signal ratio; further: on the % scale 0 is the no-effect control and ±100 the full control effect); conditions: ESRE-bla HeLa, ER stress beta-lactamase reporter, 5 h; at 61 µM (top of the series)
Outline: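 Reporter HeLa cells (ESRE-beta-lactamase) underwent 5 hr compound incubation at 37 C and 5% CO2 in quantitative HTS format. Detection followed 2 hr of FRET substrate loading at room temperature.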

[13] = qHTS assay to identify small molecule agonists of the endoplasmic reticulum stress response signaling pathway - cell viability counter screen (AID 1159517; calls by dose curve;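 further: HeLa cells carrying an ER stress response element beta-lactamase reporter; on the % scale 0 is the no-effect control and ±100 the full control effect; nearly all actives have a fitted effect of over 50% in size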); conditions: ESRE-bla HeLa viability, CellTiter-Glo luminescence, 5 h
Outline: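 Luminescence readout: CellTiter-Glo, 30 min RT, same wells as the ESRE-bla reporter read. HeLa ESRE-bla, 1,500 cells/well, o/n 37 C; cpd 5 hr 37 C/5% CO2.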

[14] = qHTS assay to identify small molecule agonists of the retinoic acid receptor (RAR) signaling pathway (AID 1159553); conditions: C3RL4 RARE luciferase reporter, agonist, 6 h; further: on the % scale 0 is the no-effect control and ±100 the full control effect
Outline: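 Activation of retinol signaling was monitored via a RARE luciferase reporter in C3RL4 cells. After 6 hr compound treatment at 37 C, detection reagent was added for 30 min at room temperature before luminescence reading.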

N#CBr
inactive: activity change, negative = inhibition [1] 23.8% | viability change, negative = cytotoxic [2] 1.88% | activation [3] -7.65% | Potency [4] | activity, negative = inhibition [5] 58.1% | viability change, negative = cytotoxic [6] 3.45% | Potency [7] | activity, negative = inhibition [8] 4.27% | Potency [9]

Cc1c([N+](=O)[O-])cccc1[N+](=O)[O-]
inactive: viability change, negative = cytotoxic ([10]; at 61 µM (top of the series)) 8.8% and -7.59% | activity, negative = cytotoxic ([11]; at 61 µM (top of the series)) -5.57% and 4.1% | activation [12] -7.53% and -2.5% | activity change, negative = cytotoxicity ([13]; at 61 µM (top of the series)) 15.8% | viability change, negative = cytotoxic [2] -4.88% and 4.66% | activation [3] -5.03% and -1.65% | Potency [4] | activity, negative = inhibition [5] -7.78% and 0.0125% | activation ([14]; at 73.3 µM (top of the series)) 0.0043% and -0.0249% | viability change, negative = cytotoxic [6] 3.89% and 0.537% | Potency [7]

CC(C)N(CCO)C(C)C
inactive: activity, negative = cytotoxic ([11]; at 61 µM (top of the series)) -0.829% | activation [12] 2.56% | activity change, negative = cytotoxicity ([13]; at 61 µM (top of the series)) 13.4% | activity change, negative = inhibition [1] 5.63% | viability change, negative = cytotoxic [2] -10% | activation [3] -7.87% | Potency [4] | activation ([14]; at 73.3 µM (top of the series)) -0.179% | viability change, negative = cytotoxic [6] 0.493% | Potency [7]

O=[N+]([O-])OCC(CO[N+](=O)[O-])(CO[N+](=O)[O-])CO[N+](=O)[O-]
inactive: viability change, negative = cytotoxic ([10]; at 61 µM (top of the series)) 11.6% | activity, negative = cytotoxic ([11]; at 61 µM (top of the series)) 7.84% | activation [12] 0.635% | activity change, negative = cytotoxicity ([13]; at 61 µM (top of the series)) 7.15% | activity change, negative = inhibition [1] 14.6% | viability change, negative = cytotoxic [2] 1.76% | activation [3] -4.81% | Potency [4] | activity, negative = inhibition [5] 17.3% | activation ([14]; at 73.3 µM (top of the series)) 0.574% | viability change, negative = cytotoxic [6] -0.781% | Potency [7] | activity, negative = inhibition [8] -1.72% | Potency [9]

Cc1ccc([N+](=O)[O-])c([N+](=O)[O-])c1
inactive: viability change, negative = cytotoxic ([10]; at 61 µM (top of the series)) 7.25% | viability change, negative = cytotoxic ([10]; at 78.8 µM (top of the series)) 3.02% | viability change, negative = cytotoxic [6] 1.43% | activity, negative = inhibition [8] -58.9% and 140%

Nc1cc([N+](=O)[O-])cc([N+](=O)[O-])c1O
inactive: activity, negative = cytotoxic ([11]; at 78.8 µM (top of the series)) -12% | activity change, negative = cytotoxicity ([13]; at 78.8 µM (top of the series)) -33.8% | viability change, negative = cytotoxic [2] 0.792% | activation [3] -14% | Potency [4] | activation ([14]; at 94.8 µM (top of the series)) -6.5% | Potency [7] | activity, negative = inhibition [8] 15.2% | Potency [9]

CN(C)CCCl
inactive: activity change, negative = inhibition [1] -1.44% | viability change, negative = cytotoxic [2] 3.4% | activation [3] 0.991% | activity, negative = inhibition [5] 2.55% | viability change, negative = cytotoxic [6] -0.0022% | Potency [7] | activity, negative = inhibition [8] 12.1% | Potency [9]
